Source: patent US20060240535A1, “Carbonyl reductase from lactococcus lactis” (GEORGIA TECH RESEARCH CORPORATION, priority 2004, published 2006)

Tested on: carbonyl reductase from Lactococcus lactis
Experiment: CRLL activity assay (decrease of NADPH absorption); substrate table of the isolated carbonyl reductase
Format: biochemical
Conditions: Substrate (20 mM)
Source text: The construct crll-pkk223-3 as well as crll-his-pkk223-3 were both transformed separately into the E. coli host strain HB101 for expression.

O=C1CCc2ccccc21 [1-indanone]
Activity (U/mL): 0 U/mL
